# According to PubChem BioAssay AID588478 (ICCB-Longwood Screening Facility, Harvard Medical School, 2011):
# Sequences of proteins named here, by UniProt entry; tags and fusion partners are left off.
# UniProt Q9Y5K5, whole entry: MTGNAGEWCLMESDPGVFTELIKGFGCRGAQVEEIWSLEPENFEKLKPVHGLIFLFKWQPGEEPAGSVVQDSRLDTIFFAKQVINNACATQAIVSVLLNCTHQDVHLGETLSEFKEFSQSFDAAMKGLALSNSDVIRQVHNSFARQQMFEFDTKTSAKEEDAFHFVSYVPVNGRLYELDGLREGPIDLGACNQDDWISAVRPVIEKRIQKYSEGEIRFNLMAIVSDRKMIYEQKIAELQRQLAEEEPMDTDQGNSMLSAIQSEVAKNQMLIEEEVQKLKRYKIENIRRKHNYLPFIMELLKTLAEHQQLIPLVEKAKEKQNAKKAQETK
# Only a part is listed here, and it is no random draw. Some salts or complexes appear as unconnected parts, following the source record. Calls of active or inactive are those of the source.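 The calls were made as follows: active = mean inhibition over replicate wells above about 20% (limit read from the data); inactive = the rest.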
# Target: Ubiquitin carboxyl-terminal hydrolase isozyme L5 (Homo sapiens) (UniProt Q9Y5K5)
# Assay: proteasome-bound UCH37 DUB activity blockers – biochemical, Ub-AMC cleavage, fluorescence, primary screen (AID 588478);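 also: 0% = compound-free wells with enzyme and 100% = wells lacking proteasome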
# Conditions: purified proteasome/UCH37, Ub-AMC cleavage fluorescence; active compounds read high; concentration not given here
# Procedure, shortened: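 Material: Human UCH37 enzyme supplied as purified proteasome complex | Schedule: 30 min preincubation with enzyme, 25 min cleavage at room temperature | Detection: AMC fluorescence 355/460 nm | Measure: % inhibition of Ub-AMC cleavage fluorescence | Controls: Wells without proteasome as full block, compound-free enzyme plus substrate as uninhibited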
row,Structure (SMILES),inhibition
1,Cc1ccccc1NP(C)(=O)Nc1ccccc1C,inactive: 5.15%
2,CP(=O)(Nc1ccc2c(c1)OCCO2)Oc1ccccc1 (stereo not drawn),inactive: 0.652%
3,c1nnnn1CCn1cnnn1,inactive: -2.5%
4,CCOP(C)(=S)SCC(=O)NC(C)(CC)C(=O)O (stereo not drawn),inactive: 5.07%
5,O=P(Nc1nccs1)(c1ccccc1)c1ccccc1,inactive: -0.697%
6,CC(C)C(=O)NC(Sc1ccccc1)C(Cl)(Cl)Cl (stereo not drawn),inactive: 3.91%
7,CCNC(=S)N=C(N)N[N+](=O)[O-],inactive: 3.96%
8,CP(=O)(Nc1ccc(SC(F)(F)F)cc1)Oc1ccc(F)cc1 (stereo not drawn),inactive: 6.22%
9,O=C(OC1CN2CCC1CC2)c1cccc(Cl)c1 (stereo not drawn),inactive: 5.82%
10,O=[N+]([O-])c1ccc(O)c(C=NNc2ccc([N+](=O)[O-])cc2[N+](=O)[O-])c1,inactive: 11.4%
11,Cc1c(C(c2ccc3c(c2)OCO3)c2c(C)n(C)n(-c3ccccc3)c2=O)c(=O)n(-c2ccccc2)n1C.O=[N+]([O-])c1cc([N+](=O)[O-])c(O)c([N+](=O)[O-])c1,inactive: 4.65%
12,Nc1ccc([As](=O)(O)c2ccc([N+](=O)[O-])cc2)cc1,inactive: 0.902%
13,C(Cc1nn[nH]n1)Cc1nn[nH]n1,inactive: 2.54%
14,O=[As](O)(c1ccccc1)c1ccc(O)cc1,inactive: 1.99%
15,Cc1cc(-c2cccc3ccccc23)c(C)cn1.O=[N+]([O-])c1cc([N+](=O)[O-])c(O)c([N+](=O)[O-])c1,inactive: 13.7%
16,O=[N+]([O-])c1cc([N+](=O)[O-])c(NCC2CCS(=O)(=O)C2)c([N+](=O)[O-])c1 (stereo not drawn),inactive: 4.91%
17,O=[N+]([O-])c1ccc(OP2(=O)COCCO2)cc1 (stereo not drawn),inactive: 2.22%
18,CC(=O)NC(SC(=S)N(C)C)C(Cl)(Cl)Cl (stereo not drawn),inactive: 0.316%
19,O=[N+]([O-])c1ncn(CCn2cnc([N+](=O)[O-])n2)n1,inactive: 4.99%
20,COc1ccc(NP(C)(=O)Oc2ccccc2OC)cc1 (stereo not drawn),inactive: 5.92%
21,O=P(Nc1nc2ccccc2s1)(c1ccccc1)c1ccccc1,inactive: 4.42%
22,CCN(C(=NP(=O)(N1CCOCC1)N1CCOCC1)N1CCOCC1)c1ccc(OC)cc1,inactive: 0.607%
23,C[C@H]1OP(=O)(Oc2ccccc2)[C@H](O)[C@H](O)[C@H]1N=[N+]=[N-] (stereo partly drawn),inactive: -0.258%
24,C=CCN1CCN(CCOC(=O)C(O)(c2ccccc2)c2ccccc2)CC1,inactive: 4.57%
25,CN(C)C1(CNC(=O)c2ccc(Cl)c(S(N)(=O)=O)c2)CCCCC1,inactive: 3.17%

row,Structure (SMILES),inhibition
1,O=P(Nc1ccccn1)(c1ccc(Br)cc1)c1ccc(Br)cc1,inactive: -1.53%
2,COc1ccc(OP(C)(=O)Nc2cccc(Br)c2)cc1 (stereo not drawn),inactive: 0.372%
3,CC(C)C=NN=C(N)N[N+](=O)[O-],inactive: 3.61%
4,COc1ccc(N)c([N+](=O)[O-])c1[N+](=O)[O-],inactive: 7.97%
5,Cc1ccccc1OP(=O)(Nc1ccccn1)Oc1ccccc1C,inactive: -0.881%
6,CC(NC(=O)COC(=O)C(O)(c1ccccc1)c1ccccc1)c1ccccc1 (stereo not drawn),inactive: -2.71%
7,CN(C)C(=O)Oc1noc2ccccc12,inactive: 6.28%
8,O=[N+]([O-])c1cc([N+](=O)[O-])c(OC2CCCCC2O)c([N+](=O)[O-])c1 (stereo not drawn),inactive: 13.5%
9,O=c1c2cc([N+](=O)[O-])ccc2[nH]c2c([N+](=O)[O-])cc([N+](=O)[O-])cc12,inactive: 11.4%
10,CP(=O)(Nc1ccccc1)Oc1ccc(F)cc1 (stereo not drawn),inactive: 3.03%
11,O=C(OC1CN2CCC1CC2)c1ccccc1 (stereo not drawn),inactive: 0.921%
12,CCC(=O)N1C2C3N(C(=O)CC)C1C1N(C(=O)CC)C(C(N1C(=O)CC)N3C(=O)CC)N2C(=O)CC,inactive: 4.09%
13,CCN(CC)CCCOC(=O)C(O)(c1ccccc1)C1CCCCC1 (stereo not drawn),inactive: 5.82%
14,COC(=O)c1cc2c(s1)N=C(c1ccccc1)N(C)P2(=O)N1CCOCC1 (stereo not drawn),inactive: 5.98%
15,Cc1c([N+](=O)[O-])cc([N+](=O)[O-])c(Br)c1[N+](=O)[O-],inactive: 11.9%
16,CC(=O)NC(SC(=S)N(CC(C)C)CC(C)C)C(Cl)(Cl)Cl (stereo not drawn),inactive: 1.84%
17,Cc1ccc(OP(=O)(Nc2ccccn2)Oc2ccc(C)cc2)cc1,inactive: 3.03%
18,COc1ccc(OP(C)(=O)Nc2ccc(SC(F)(F)F)cc2)cc1 (stereo not drawn),inactive: 5.26%
19,O=P1(N(CCCl)CCCl)OCCC2CCCCN21 (stereo not drawn),inactive: 4.2%
20,CCOC(=O)c1ccc(NP(C)(=O)Oc2ccc(F)cc2)cc1 (stereo not drawn),inactive: 3.61%
21,c1ccc(-c2nn[nH]n2)c(-c2nn[nH]n2)c1,inactive: -1.92%
22,Cc1ccc(NP(=O)(Oc2cccc(C)c2)Oc2cccc(C)c2)nc1,inactive: 2.56%
23,O=C(NC1CCS(=O)(=O)C1)NP(=S)(Oc1ccccc1)Oc1ccccc1 (stereo not drawn),inactive: 0.976%
24,COc1ccc2c(c1O)-c1c(O)c(OC)cc3c1[C@H](C2)[N+](C)(C)CC3.O=[N+]([O-])c1cc([N+](=O)[O-])c([O-])c([N+](=O)[O-])c1[O-],inactive: -66.8%
25,CC(=O)Nc1ccc([As](=O)(O)O)c(O)c1,inactive: 1.99%

row,Structure (SMILES),inhibition
1,O=C(OCCN1CCN(CCOCc2ccccc2)CC1)C(O)(c1ccccc1)c1ccccc1,inactive: 0.711%
2,Cc1ccccc1CN(C)C(=O)COC(=O)C(O)(c1ccccc1)c1ccccc1,inactive: 3.37%
3,C[C@@H]1C=CCP(=O)(Oc2ccccc2)O1 (stereo partly drawn),inactive: -0.391%
4,C[C@H]1OP(=O)(Oc2ccccc2)C[C@@H]2O[C@@H]21 (stereo partly drawn),inactive: -1.51%
5,NC(=NO)c1c(N)no[n+]1[O-],inactive: 0.589%
6,CC(=O)c1ccc(N2CC2c2ccncc2)cc1 (stereo not drawn),inactive: 4.38%
7,O=C(OC1CN2CCC1CC2)c1ccc([N+](=O)[O-])cc1 (stereo not drawn),inactive: 6%
8,CC(C)(C)C(=O)NC(Sc1ccccc1)C(Cl)(Cl)Cl (stereo not drawn),inactive: 2.97%
9,CCc1cc(O)c([N+](=O)[O-])c(C)c1[N+](=O)[O-],inactive: 2.83%
10,CP(=O)(Nc1ccccc1F)Oc1ccccc1 (stereo not drawn),inactive: 3.04%
11,O=P1(Nc2nc3ccc(Cl)cc3s2)COc2ccccc2O1 (stereo not drawn),inactive: -0.543%
12,CCOc1ccc(C2=NCC(CBr)S2)cc1 (stereo not drawn),inactive: 8.4%
13,CCc1ccc(OP(C)(=O)O)cc1,inactive: 8.94%
14,CP(=O)(Nc1ccccn1)Oc1ccccc1 (stereo not drawn),inactive: 0.577%
15,COc1ccccc1OP(C)(=O)Nc1ccc(C)cc1C (stereo not drawn),inactive: 0.643%
16,Oc1ccccc1CNc1ccccn1,inactive: 0.583%
17,O=C(NC(Sc1ccncn1)C(Cl)(Cl)Cl)c1ccccc1 (stereo not drawn),inactive: -5.36%
18,O=[N+]([O-])c1cc([N+](=O)[O-])c(Nc2ccccn2)c([N+](=O)[O-])c1,inactive: 12.3%
19,CC(C)CC(=O)NC(Sc1ccc(Cl)cc1)C(Cl)(Cl)Cl (stereo not drawn),inactive: 2.04%
20,Nc1cc(N)c2nonc2c1[N+](=O)[O-],inactive: 12.8%
21,Cc1c(NP(C)(=O)Oc2ccc(C(C)C)cc2)c(=O)n(-c2ccccc2)n1C (stereo not drawn),inactive: 5.03%
22,CN(C)CCOC(=O)C(O)(c1ccccc1)C1CCCC1 (stereo not drawn),inactive: 1.29%
23,Clc1ccc(Cl)c(NC2=NCC(CBr)S2)c1 (stereo not drawn),inactive: 5.96%
24,CN1CCCC(OC(=O)C(c2ccccc2)c2ccccc2)C1 (stereo not drawn),inactive: 2.68%
25,COc1ccc(OP(C)(=O)Nc2ccccn2)cc1 (stereo not drawn),inactive: 4.42%

row,Structure (SMILES),inhibition
1,COc1ccccc1OP(=O)(Nc1ccc(C)cn1)Oc1ccccc1OC,inactive: 3.45%
2,Cc1ccc(OP(=O)(Nc2nccs2)Oc2ccc(C)cc2)cc1,inactive: 2.77%
3,COc1ccccc1OP(C)(=O)Nc1ccc(Br)cc1 (stereo not drawn),inactive: 3.34%
4,CN(C(=O)Cc1ccc(Cl)c(Cl)c1)[C@H]1CCCC[C@H]1N1CCCC1,inactive: 2.63%
5,NC(=O)c1cc([N+](=O)[O-])cc([N+](=O)[O-])c1N,inactive: 13.1%
6,CP(=O)(Nc1ccc(Cl)cc1Cl)Oc1ccccc1 (stereo not drawn),inactive: 1.77%
7,CC(C)N1C(=O)CC2(CCN(CCOC(=O)C(O)(c3ccccc3)c3ccccc3)CC2)C1=O,inactive: 0.633%
8,CCN(N=Nc1nonc1N)c1nonc1N,inactive: 9.55%
9,COc1ccc(OP(C)(=O)Nc2ccccc2Br)cc1 (stereo not drawn),inactive: 1.57%
10,CC(C)=NN=C(N)N[N+](=O)[O-],inactive: 3.74%
11,CCOP(=O)(Nc1ccccc1)OCC,inactive: 0.542%
12,Cc1cc(SC(NC(=O)c2ccc(F)cc2)C(Cl)(Cl)Cl)ncn1 (stereo not drawn),inactive: -8.32%
13,CN(C(=O)Cc1ccc(Cl)c(Cl)c1)[C@H]1CCCC[C@@H]1N1CCCC1,inactive: 6.03%
14,Cc1ccc(NP(=O)(Oc2ccccc2F)Oc2ccccc2F)nc1,inactive: -17.8%
15,COc1ccccc1OP(C)(=O)Nc1ccc(C)c(C)c1 (stereo not drawn),inactive: 1.44%
16,O=C1C(O)=C([N+](=O)[O-])C(=O)C(O)=C1[N+](=O)[O-],inactive: 3.73%
17,Cc1cc(C)cc(OP(C)(=O)Nc2cccc(C(F)(F)F)c2)c1 (stereo not drawn),inactive: 3.17%
18,O=P(Nc1nc2ccc(Cl)cc2s1)(c1ccccc1)c1ccccc1,inactive: 5.19%
19,O=C(O)c1ccccc1[As](=O)(O)O,inactive: 1.73%
20,CC(=O)Nc1ccc([As](=O)(O)O)cc1,inactive: -0.983%
21,CCN(CC)CC(C)C(C)OC(=O)C(O)(c1ccccc1)c1ccccc1 (stereo not drawn),inactive: 1.03%
22,CCCC1OP(N)(=O)OCC1CC (stereo not drawn),inactive: 3.68%
23,O=C(O)CNc1ccc([As](=O)(O)O)cc1,inactive: 1.85%
